Patent US20230348462A1, “IMIDAZO[4,5-C]QUINOLINE COMPOUNDS AND THEIR USE AS ATM KINASE INHIBITORS” (Deutsches Krebsforschungszentrum, priority 2020, published 2023)

Test system: Panc-1 human pancreatic ductal carcinoma cells
Assay: Panc1 cell assay (XTT cell viability with Etoposide)
Type: cell-based
Conditions: 4 h pre-treatment, then 300 nM Etoposide, 46 h
From the text: A selection of compounds was screened in a cellular assay system in two different cancer cell lines. Therefore, the cells were challenged with a generally non-cytotoxic concentration of Etoposid to induce DNA double strand breaks and the activation of the ATM pathway. The cells were further treated with different concentrations of the final compounds and viability of the cells was quantified using a standard XTT cell viability protocol. The principle of this assay lies in the fact that only alive and thus metabolically active cells are able to catalyze the reduction of XTT ((2,3-bis-(2-methoxy-4-nitro-5-sulfophenyl)-2H-tetrazolium-5-carboxanilide) by NADH from mitochondria, into formazan. The formazan product can be then detected using an absorbance-based microplate reader. The absorbance intensity measured in each well correlates to cell viability.
In brief, kras^G12D; mycOE; p53^−/− murine pancreatic cancer cells (KMP53) and Panc-1 human pancreatic ductal carcinoma cells were seeded in 96-well plates and left to attach overnight. […] For the determination of cell viability, absorbance at 450 nm was measured for each well. Absorbance values were then normalized to DMSO control and expressed as percentages of viability. Using software GraphPad Prism, the values were fitted in a nonlinear response curve and the IC50 values were calculated.

CN(C)CCCOc1ccc(-c2ccc3ncc4c(c3c2)n(C2CCOCC2)c(=O)n4C)cn1 [AZD0156, reference compound]
IC50: 305 nM
